Test results reported in ChEMBL document CHEMBL3351472, “Synthesis and Biological Activity of 25-Hydroxy-2-methylene-vitamin D3 analogues monohydroxylated in the A-ring” (J Med Chem, 2014).

Tested on: Rattus norvegicus
Assay: Effect on intestinal calcium transport in weanling Sprague-Dawley rat assessed as increase in ratio of serosal to mucosal calcium level at 780 pmol/day, ip administered as 4 consecutive daily doses measured 24 hrs after last dose
Format: functional

## C=C1/C(=C\C=C2/CCC[C@]3(C)[C@@H]([C@H](C)CCCC(C)(C)O)CC[C@@H]23)C[C@@H](O)C[C@@H]1O [CALCITRIOL]
  Ratio: 7.7
